Earlier results, collected in patent publication US20110246079A1, “INDIVIDUAL 5-FLUOROURACILE DOSE OPTIMIZATION IN FOLFOX TREATMENT” (Centre Regional De Lutte Contre, priority 2008, published 2011).

System: 5-FU metabolism
Settings: in vivo

O=C1[O][Pt]2([NH][C@@H]3CCCC[C@H]3[NH]2)[O]C1=O [oxaliplatin]
induced toxicities: diarrhea and leucopenia
